Here are results for 109 compounds from PubChem BioAssay AID1016 (Sanford-Burnham Center for Chemical Genomics, 2008).

The entries are a selection whose mix differs from that of the whole data set. Activity calls are given as the source filed them.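 How the source made its calls: active means activation factor of 2 or more at 20 µM, a signal rise over negative controls twice the positive control's; inactive means the rest.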

For this experiment, the system named is alkaline phosphatase, intestinal [Bos taurus]. Description: IAP enzyme activity enhancers – biochemical, bovine IAP, CDP-star luminescence, primary screen (AID 1016). The note with it: purified bovine IAP, 30 min, at 20 µM, fold of DMSO-control signal, blank-subtracted; active compounds read high.
As for `CCOC(=O)c1ccc(NP(C)(=O)Oc2ccccc2)cc1` (centres undefined), the activation factor was inactive: 0.9.

Regarding `COc1ccccc1OP(C)(=O)Nc1ccc(C)cc1` (centres undefined), the activation factor was inactive: 0.9.

`Cc1ccc(NP(C)(=O)Oc2ccccc2)c(C)c1` (centres undefined): the activation factor was inactive: 1.

Regarding `CCN(CC)C(=S)SC(NC=O)C(Cl)(Cl)Cl` (centres undefined), the activation factor entry is “inactive”.

Take `COc1ccccc1OP(C)(=O)Nc1cc(Cl)ccc1C` (centres undefined): the activation factor is inactive: 1.

In the case of `CC(C)NC(=O)NP(=O)(Oc1ccccc1)Oc1ccccc1`, the activation factor entry is “inactive”.

As for `O=[N+]([O-])c1cc([N+](=O)[O-])c(-c2ccn[nH]2)s1`, the activation factor entry was “inactive”.

Consider `COc1ccc(OP(C)(=O)Nc2cccc(F)c2)cc1` (centres undefined), for which the activation factor was inactive: 1.

Regarding `Cc1cc(C)cc(OP(C)(N)=O)c1` (centres undefined), the activation factor was inactive: 1.2.

`CC(C)(C)c1ccc(OP(C)(=O)Nc2ccc(SC(F)(F)F)cc2)cc1` (centres undefined): the activation factor is inactive: 1.

Regarding `Cc1cccc(C)c1OP(C)(N)=O` (centres undefined), the activation factor was inactive: 1.2.

For the compound `Cc1ccc2nc3c(c(C)c2c1)CC(C(Cl)Cl)S3` (centres undefined), the activation factor entry is “inactive”.

Turning to `O=[N+]([O-])c1ccc2c(c1)C=Nc1ccccc1O2`, the activation factor is inactive: 0.9.

Regarding `COc1ccc(N/C(=N/P(=O)(N2CCOCC2)N2CCOCC2)N2CCOCC2)cc1`, the activation factor entry was “inactive”.

Turning to `Cc1c2c(nc3ccccc13)SC(C(Cl)Cl)C2` (centres undefined), the activation factor result was “inactive”.

For the compound `O=C(OC1CN2CCC1CC2)C12CC3CC(CC(C3)C1)C2` (centres undefined), the activation factor entry is “inactive”.

In the case of `CCN(CC)CCCOC(=O)C(O)(c1ccccc1)c1ccccc1`, the activation factor was inactive: 1.1.

`Cc1cc(=O)[nH]c(N[N+](=O)[O-])n1`: the activation factor result was “inactive”.

For the compound `COc1ccc2nc(NP(=O)(c3ccccc3)c3ccccc3)sc2c1`, the activation factor result is “inactive”.

On to `CCOP(C)(=S)SCC(=O)NC(C)C(=O)O` (centres undefined), for which the activation factor was inactive: 1.

With `CCOC(=O)c1ccc(NP(C)(=O)Oc2ccc(OC)cc2)cc1` (centres undefined), the activation factor was inactive: 0.9.

As for `CCC(C)N(CC(C)C)C(=S)SC(NC(C)=O)C(Cl)(Cl)Cl` (centres undefined), the activation factor entry is “inactive”.

Regarding `CP(=O)(Nc1ccccn1)Oc1ccc(Cl)cc1` (centres undefined), the activation factor is inactive: 0.9.

Consider `Cc1cccc(C)c1OP(C)(=O)Nc1ccc(SC(F)(F)F)cc1` (centres undefined), for which the activation factor is inactive: 1.

On to `COP1(=S)c2c(C)nn(CCC#N)c2N=C(c2ccc(F)cc2)N1C` (centres undefined), for which the activation factor entry is “inactive”.

Turning to `CP(=O)(Oc1ccccc1)OC(c1ccccc1)C(F)(F)F` (centres undefined), the activation factor was inactive: 1.2.

Take `CP(=O)(NC(=O)Nc1ccccc1)Oc1ccccc1` (centres undefined): the activation factor is inactive: 0.9.

In the case of `Cc1cc(C)cc(OP(C)(=O)Nc2ccc(SC(F)(F)F)cc2)c1` (centres undefined), the activation factor was inactive: 1.

As for `CP(=S)(Nn1cnnc1)Oc1ccccc1` (centres undefined), the activation factor is inactive: 0.9.

Consider `COc1ccccc1OP(C)(=O)Nc1ccccc1` (centres undefined), for which the activation factor was inactive: 0.9.

Regarding `CP(=O)(Nc1ccccc1Br)Oc1ccccc1` (centres undefined), the activation factor is inactive: 0.9.

On to `Cc1cc(SC(NC(=O)c2ccccc2)C(Cl)(Cl)Cl)nc(C(C)C)n1` (centres undefined), for which the activation factor result is “inactive”.

As for `O=P1(Nc2ncccn2)COc2ccccc2OC1`, the activation factor result is “inactive”.

In the case of `COc1ccccc1OP(C)(=O)Nc1c(C)cccc1C` (centres undefined), the activation factor is inactive: 1.

`CN1CCCCC1COC(=O)C1(O)c2ccccc2CCc2ccccc21` (centres undefined): the activation factor is inactive: 1.1.

`CP(=O)(Nc1ccc(SC(F)(F)F)cc1)Oc1ccccc1` (centres undefined): the activation factor was inactive: 0.7.

Take `CCCOc1ccc(NP(C)(=O)Oc2ccc(Cl)cc2)cc1` (centres undefined): the activation factor was inactive: 1.

In the case of `Cc1nn(-c2ccccc2)c2c1P(=O)(N1CCOCC1)N(C)C(c1ccccc1)=N2` (centres undefined), the activation factor entry was “inactive”.

Consider `CN(C)C1(CNC(=O)c2ccc(S(C)(=O)=O)cc2)CCCCC1`, for which the activation factor entry was “inactive”.

Turning to `Cc1nc2ccc3ccccc3c2s1.O=[N+]([O-])c1cc([N+](=O)[O-])c(O)c([N+](=O)[O-])c1`, the activation factor is inactive: 0.8.

For the compound `O=P1(Nc2ccccn2)COc2ccccc2OC1`, the activation factor result was “inactive”.

For `O=[N+]([O-])c1cc([N+](=O)[O-])c(-n2nnc3ccccc32)c([N+](=O)[O-])c1`, the activation factor was inactive: 1.2.

Take `CP(=O)(Nc1cccc(Br)c1)Oc1ccccc1` (centres undefined): the activation factor is inactive: 1.

Consider `Cc1cc(C)cc(OP(C)(=O)Nc2ccccn2)c1` (centres undefined), for which the activation factor was inactive: 0.9.

Take `Cc1ccc(C)c(NP(C)(=O)Oc2ccccc2)c1` (centres undefined): the activation factor is inactive: 0.9.

Turning to `CCOP(=O)(Nc1cccc2ccccc12)OCC`, the activation factor entry is “inactive”.

`Cc1cc(C)cc(OP(C)(=O)Nc2ccc(C)cc2C)c1` (centres undefined): the activation factor was inactive: 0.9.

For the compound `CCOC(=O)c1ccc(NP(C)(=O)Oc2cc(C)cc(C)c2)cc1` (centres undefined), the activation factor is inactive: 0.8.

`CC1=NCCc2c1[nH]c1ccccc21.O=[N+]([O-])c1cc([N+](=O)[O-])c(O)c([N+](=O)[O-])c1`: the activation factor is inactive: 1.1.

With `O=P(Nc1nccs1)(Oc1ccccc1)Oc1ccccc1`, the activation factor entry was “inactive”.

For the compound `CCN(CC)CCCOC(=O)C(O)(c1ccccc1)C1CCCCC1` (centres undefined), the activation factor entry was “inactive”.

Turning to `CCC(=O)N1C2C3N(C(=O)CC)C1C1N(C(=O)CC)C(C(N1C(=O)CC)N3C(=O)CC)N2C(=O)CC`, the activation factor result was “inactive”.

Take `Cc1ccc(OP(=O)(Nc2ccccn2)Oc2ccc(C)cc2)cc1`: the activation factor entry is “inactive”.

With `CC(=O)NC(SC(=S)N(CC(C)C)CC(C)C)C(Cl)(Cl)Cl` (centres undefined), the activation factor result is “inactive”.

On to `CP(=O)(Nc1ccccc1)Oc1ccc(F)cc1` (centres undefined), for which the activation factor was inactive: 1.

`O=C(NC1CCS(=O)(=O)C1)NP(=S)(Oc1ccccc1)Oc1ccccc1` (centres undefined): the activation factor entry is “inactive”.

For the compound `COc1ccc(OP(C)(=O)Nc2ccc(SC(F)(F)F)cc2)cc1` (centres undefined), the activation factor was inactive: 1.3.

On to `CCOC(=O)c1ccc(NP(C)(=O)Oc2ccc(F)cc2)cc1` (centres undefined), for which the activation factor is inactive: 1.

Consider `O=C(OCCN1CCN(CCOCc2ccccc2)CC1)C(O)(c1ccccc1)c1ccccc1`, for which the activation factor is inactive: 0.7.

For `CC(=O)Nc1ccc(Oc2c([N+](=O)[O-])cc([N+](=O)[O-])cc2[N+](=O)[O-])cc1`, the activation factor result is “inactive”.

`O=P1(Nc2nc3ccc(Cl)cc3s2)COc2ccccc2O1` (centres undefined): the activation factor result is “inactive”.

Turning to `CC(C)c1ccc(OP(C)(=O)Nc2ccc(SC(F)(F)F)cc2)cc1` (centres undefined), the activation factor is inactive: 0.9.

Take `CP(=O)(Nc1ccccc1F)Oc1ccccc1` (centres undefined): the activation factor is inactive: 0.9.

Regarding `CP(=O)(Nc1ccc2c(c1)OCCO2)Oc1ccccc1` (centres undefined), the activation factor is inactive: 1.

As to `Cc1ccccc1NP(C)(=O)Nc1ccccc1C`, the activation factor is inactive: 1.

In the case of `CC(C)C(=O)NC(Sc1ccccc1)C(Cl)(Cl)Cl` (centres undefined), the activation factor result is “inactive”.

With `O=P(Nc1nccs1)(c1ccccc1)c1ccccc1`, the activation factor entry is “inactive”.

Consider `CCOP(C)(=S)SCC(=O)NC(C)(CC)C(=O)O` (centres undefined), for which the activation factor was inactive: 1.1.

For `O=[N+]([O-])c1cc([N+](=O)[O-])c(NCC2CCS(=O)(=O)C2)c([N+](=O)[O-])c1` (centres undefined), the activation factor was inactive: 1.

Regarding `CC(=O)NC(SC(=S)N(C)C)C(Cl)(Cl)Cl` (centres undefined), the activation factor result was “inactive”.

For `O=C(OC1CN2CCC1CC2)c1cccc(Cl)c1` (centres undefined), the activation factor entry was “inactive”.

Regarding `COc1ccc(OP(C)(=O)Nc2cccc(Br)c2)cc1` (centres undefined), the activation factor is inactive: 1.

As for `COc1ccc(NP(C)(=O)Oc2ccccc2OC)cc1` (centres undefined), the activation factor was inactive: 1.

Regarding `CN(C)CCOC(=O)C(O)(c1ccccc1)C1CCCCC1` (centres undefined), the activation factor result was “inactive”.

Take `O=[N+]([O-])c1ncn(CCn2ncnc2[N+](=O)[O-])n1`: the activation factor result was “inactive”.

As to `CP(=O)(OC12CC3CC(CC(C3)C1)C2)OC12CC3CC(CC(C3)C1)C2`, the activation factor is inactive: 1.

Take `CCOC(=O)c1ccc(NP(C)(=O)Oc2ccc(Cl)cc2)cc1` (centres undefined): the activation factor is inactive: 1.

For the compound `CCN(/C(=N/P(=O)(N1CCOCC1)N1CCOCC1)N1CCOCC1)c1ccc(OC)cc1`, the activation factor entry is “inactive”.

On to `CP(=O)(Nc1ccc(Cl)cc1)Oc1ccc(F)cc1` (centres undefined), for which the activation factor was inactive: 1.

Take `CC(C)(C)c1ccc(OP(C)(=O)O)cc1`: the activation factor is inactive: 0.9.

For `COc1ccccc1OP(C)(=O)Nc1ccccc1Br` (centres undefined), the activation factor is inactive: 1.

Regarding `CC1CCN(C(=O)Oc2c(Cl)cc(Cl)c3cccnc23)CC1`, the activation factor result was “inactive”.

Take `CN(C)C(=O)c1c([N+](=O)[O-])cc([N+](=O)[O-])cc1[N+](=O)[O-]`: the activation factor is inactive: 0.9.

`CC(C)=N/N=C(\N)N[N+](=O)[O-]`: the activation factor entry is “inactive”.

Regarding `CN(C)C(=O)OCCc1n(C)cc[n+]1C`, the activation factor result is “inactive”.

With `CCN(CC)CC(O)COC(=O)C(O)(c1ccccc1)C1CCCCC1` (centres undefined), the activation factor entry is “inactive”.

On to `COc1ccc(OP(C)(=O)Nc2ccc(Br)cc2)cc1` (centres undefined), for which the activation factor is inactive: 1.

As for `CP(=O)(Oc1ccccc1)N1CCOC1=O` (centres undefined), the activation factor was inactive: 1.1.

On to `Cc1ccc(NP(=O)(Oc2ccccc2)Oc2ccccc2)nc1`, for which the activation factor result is “inactive”.

As to `CCc1ccc(OP(C)(=O)Nc2cccnc2)cc1` (centres undefined), the activation factor is inactive: 1.

`COc1ccccc1OP(C)(=O)Nc1c(C)n(C)n(-c2ccccc2)c1=O` (centres undefined): the activation factor is inactive: 0.9.

Take `CC(=O)N1C2C3N(C(C)=O)C1C1N(C(C)=O)C(C(N1C(C)=O)N3C(C)=O)N2C(C)=O`: the activation factor entry was “inactive”.

For `O=C(NC(Sc1ccncn1)C(Cl)(Cl)Cl)c1ccccc1` (centres undefined), the activation factor result was “inactive”.

For the compound `O=[N+]([O-])c1cc([N+](=O)[O-])c(Nc2ccccn2)c([N+](=O)[O-])c1`, the activation factor is inactive: 0.7.

For `Cc1c(NP(C)(=O)Oc2ccc(C(C)C)cc2)c(=O)n(-c2ccccc2)n1C` (centres undefined), the activation factor was inactive: 1.

With `CCc1ccc(OP(C)(=O)O)cc1`, the activation factor was inactive: 1.

For the compound `CP(=O)(Nc1ccccn1)Oc1ccccc1` (centres undefined), the activation factor was inactive: 0.9.

Consider `COc1ccccc1OP(C)(=O)Nc1ccc(C)cc1C` (centres undefined), for which the activation factor is inactive: 0.9.

In the case of `Cc1ccc(N/C(=N/P(=O)(N2CCOCC2)N2CCOCC2)N2CCOCC2)cc1`, the activation factor result is “inactive”.

As for `CN(C)CCOC(=O)C(O)(c1ccccc1)C1CCCC1` (centres undefined), the activation factor is inactive: 0.9.

In the case of `CN1CCCC(OC(=O)C(c2ccccc2)c2ccccc2)C1` (centres undefined), the activation factor result is “inactive”.

As for `COc1ccc(OP(C)(=O)Nc2ccccn2)cc1` (centres undefined), the activation factor is inactive: 0.9.

`Cc1nc2ccc3ccccc3c2o1.O=[N+]([O-])c1cc([N+](=O)[O-])c(O)c([N+](=O)[O-])c1`: the activation factor is inactive: 1.

Take `CP(=O)(OCCOc1ccccc1)OCCOc1ccccc1`: the activation factor is inactive: 1.

In the case of `CP(=O)(Nc1ccc(Cl)cc1Cl)Oc1ccccc1` (centres undefined), the activation factor is inactive: 1.

On to `Cc1cc(C)cc(OP(C)(=O)Nc2cccc(C(F)(F)F)c2)c1` (centres undefined), for which the activation factor is inactive: 1.

Turning to `COc1ccc(OP(C)(=O)Nc2ccccc2Br)cc1` (centres undefined), the activation factor is inactive: 0.7.

For `Cc1cc(SC(NC(=O)c2ccc(F)cc2)C(Cl)(Cl)Cl)ncn1` (centres undefined), the activation factor result was “inactive”.

Take `COc1ccccc1OP(C)(=O)Nc1ccc(C)c(C)c1` (centres undefined): the activation factor is inactive: 1.
